Measurements from patent publication US20060024786.

Assays:
[1] = molecular target: full length human WASP (Myc-WASP-TAP)
[2] = molecular target: full length human N-WASP (Myc-N-WASP-TAP)

B1: N_GST_tev_Cdc42 GTP (bacterial GST tagged Cdc42 protein) (protein)
chain: MSPILGYWKIKGLVQPTRLLLEYLEEKYEEHLYERDEGDKWRNKKFELGLEFPNLPYYIDGDVKLTQSMAIIRYIADKHNMLGGCPKERAEISMLEGAVLDIRYGVSRIAYSKDFETLKVDFLSKLPEMLKMFEDRLCHKTYLNGDHVTHPDFMLYDALDVVLYMDPMCLDAFPKLVCFKKRIEAIPQIDKYLKSSKYIAWPLQGWQATFGGGDHPPKSDLVPRPWSNQTSLYKKAGFENLYFQGQTIKCVVVGDVAVGKTCLLISYTTNKFPSEYVPTVFDNYAVTVMIGGEPYTLGLFDTAGQEDYDRLRPLSYPQTDVFLVCFSVVSPSSFENVKEKWVPEITHHCPKTPFLLVGTQIDLRDDPSTIEKLAKNKQKPITPETAEKLARDLKAVKYVECSALTQRGLKNVFDEAILAALEPPETQPKRKCCIF
- Barbed ends % of max. (after subtracting baseline) [1]: 87%
- Barbed ends % of max. (after subtracting baseline) [2]: 9%
- Barbed ends, nM (pyrene-actin polymerization assay) [2]: 1.3 nM
